Test results reported in US20220023317A1, “PREVENTING OR MITIGATING CHEMOTHERAPY INDUCED ALOPECIA USING VITAMIN D” (Berg LLC, priority 2013, published 2022).

Key:
[1] = system: Gottingen Minipig; experiment: 4-week dermal toxicity study in Gottingen Minipigs; conditions: minipig NOAEL dose vs initial clinical dose 5 μg/mL x 1 mL x 2/day, 60 kg
Experimental: Observations for morbidity, mortality, injury, and the availability of food and water were conducted twice daily for all animals. Clinical observations were conducted weekly.

[2] = system: HEKa cells; experiment: Antibody microarray (Panorama XP725) of calcitriol-treated HEKa; assay type: cell-based, human; conditions: calcitriol-treated (24 hour) HEKa
Experimental: Briefly, the treated HEKa cells were first harvested and then extracted to obtain a soluble protein supernatant. […] The excess dye was removed from the protein sample, and the resulting labeled protein samples were used for microarray incubation. To determine the expression level of a particular target protein at a later time point (e.g., at hour 6 or 24) relative to that at an earlier time point (e.g., at hour 3), the samples were labeled by different labels (e.g., 3-hour extract labeled with Cy3, 6-hour or 24-hour extract labeled with Cy5). […] After incubation with the microarray chip (according to manufactures recommended protocols), the chips were washed and dried. The microarrays were then scanned with a fluorescent laser scanner to measure the relative fluorescence intensity of the Cy3 and Cy5 dyes. If the amount of a particular type of target protein increased (or decreased) over time, more (or less) of the dye associated with the later time point (e.g., Cy5) will be retained by the microarray. For example, in this experiment, the earliest time point (e.g., 3-hour) was used as a baseline to determine the relative protein expression level at two later time points (e.g., 6-hour vs. 24-hour). If more Cy5 is retained by the array between 6-24 hours, the expression level of the target protein increased over the time period. […]

`C=C1/C(=C\C=C2/CCC[C@]3(C)[C@@H]([C@H](C)CCCC(C)(C)O)CC[C@@H]23)C[C@@H](O)C[C@@H]1O` [Calcitriol, (1a.3B.5Z.7E)-9,10-secocholesta-5,7,10(19)-triene-1,3,25-triol] was tested, and the “margin of safety (MOS)” value [1] was 20 and the “Target Proteins with Decreased (>2-fold) Protein Levels (value = protein)” value [2] was “Transforming Growth Factorb pan and WAVE and Protein Tyrosine Phosphatase PEST and CD40 and Crk II and Growth Factor Independence1 and Serine Threonine Protein and Cathepsin D”.
